The record followed here is patent US7772263B2, “Compounds for the treatment of inflammatory disorders” (Schering Corporation, priority 2006, dated 2010).

By UniProt entry, the sequences of proteins in these tests, tags left out. Residues count along the entry.
UniProt P78536, 215-477 S266A/N452Q limits assumed: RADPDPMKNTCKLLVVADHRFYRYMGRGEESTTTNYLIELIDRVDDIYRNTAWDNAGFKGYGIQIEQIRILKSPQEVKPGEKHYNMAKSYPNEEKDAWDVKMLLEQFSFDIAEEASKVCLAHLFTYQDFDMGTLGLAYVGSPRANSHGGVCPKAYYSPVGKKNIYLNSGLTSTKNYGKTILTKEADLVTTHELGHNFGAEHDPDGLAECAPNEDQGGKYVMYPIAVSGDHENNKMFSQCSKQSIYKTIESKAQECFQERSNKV

This assay has as its target T1, purified catalytic domain of recombinant human TACE (rhTACEc) (Homo sapiens, UniProt P78536, N452Q/S266A).
T1 construct: rhTACEc, Residue 215 to 477 with two mutation (S266A and N4520) and a 6×His tail; 6xHis (C); made in house; host or cells: baculovirus/Hi5 insect cells
The assay is described as follows: TACE kinetic assay, cleavage of internally quenched fluorescent peptide substrate SPDL-3. The note with it: rhTACEc 70 pM, 30 μM SPDL-3, 90 min pre-incubation at 25° C.; read-out: Ki (nM), TACE inhibitory activity. Format: biochemical.

For the compound `COc1ccc2c(c1)C(=O)N(C[C@@]1(C#Cc3ccc4c(c3)CCC43NC(=O)NC3=O)NC(=O)NC1=O)C2` (stereo partly shown) [Compound 1576], the Ki was 0.27 nM.

Usually Ki stands for the equilibrium dissociation constant of an inhibitor or competing ligand from its target.
